For test [1], the target named is T1, Sphingosine 1-phosphate receptor 1 (Homo sapiens, UniProt P21453). Kind of test: Agonist activity at human recombinant S1P1 expressed in CHO cells assessed as stimulation of ERK phosphorylation incubated for 7 mins by microplate reader analysis relative to S1P. As to conditions: filed as agonist. It is filed as cell-based.
Test [2] has as its target T1, Sphingosine 1-phosphate receptor 1. The test can be described thus: Displacement of [33P]-SIP from human recombinant S1P1 expressed in CHO cell membranes measured after 45 mins by TopCount scintillation counting method relative to control. Conditions: Cell membrane, filed as agonist.
For test [3] the target is unchanged. Kind of test: Agonist activity at human recombinant C-terminal GFP-fused S1P1 expressed in CHO cells assessed as induction of receptor internalization incubated for 50 mins by fluorescence based confocal laser scanning microscopic analysis relative to control. As to conditions: filed as agonist. It is filed as cell-based.

Protein sequences, listed by entry. Tags and fused reporters are not part of them.
UniProt P21453, whole entry: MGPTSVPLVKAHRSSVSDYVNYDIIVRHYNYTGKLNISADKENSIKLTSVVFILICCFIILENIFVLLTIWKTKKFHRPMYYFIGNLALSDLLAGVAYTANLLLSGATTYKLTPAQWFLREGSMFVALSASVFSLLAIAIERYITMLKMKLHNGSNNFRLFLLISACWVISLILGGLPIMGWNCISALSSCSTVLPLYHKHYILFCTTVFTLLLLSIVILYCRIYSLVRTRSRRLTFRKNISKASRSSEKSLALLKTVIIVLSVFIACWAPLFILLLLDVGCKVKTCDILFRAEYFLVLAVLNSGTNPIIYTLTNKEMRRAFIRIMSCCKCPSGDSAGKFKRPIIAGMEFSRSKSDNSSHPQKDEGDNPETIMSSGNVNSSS

The values below come from ChEMBL document CHEMBL4732158, “Bicyclic Ligand-Biased Agonists of S1P: Exploring Side Chain Modifications to Modulate the PK, PD, and Safety Profiles” (J Med Chem, 2021).

For the compound `COCCCCC[C@@H]1CCc2cc([C@H]3CC[C@](N)(COP(=O)(O)O)C3)ccc2C1`, the Rmax in test [1] is 100%; in test [2] it was 98%; in test [3], 77%.
On the same counts, the results for `CCOCCC[C@H]1CCc2cc([C@H]3CC[C@](N)(COP(=O)(O)O)C3)ccc2C1` are 99%, 98% and 53%.
